Test results as given in patent US6375962B2, “Barrier cream comprising hexamethylenetetramine or derivative thereof” (dated 2002).

How the values were obtained:
[1] = tested on: SVK-14 human keratinocyte cells; details: treatment without SM
[2] = Reactivity with radiolabelled sulphur mustard in THF, TLC autoradiography; details: one hour after addition of 35S-SM
[3] = tested on: SVK-14 human keratinocyte cells

With `C1N2CN3CN1CN(C2)C3` the “growth of the cells (crystal violet assay) compared to control” value [1] was “did not significantly alter the growth”, the “free H (SM) on TLC autoradiograph” value [2] was “No free H is present” and the “increase in viability compared to SM control” value ([3]; 10 mM HMT singly, 72 hour time-point) was 22.6%. The “effect on toxicity of SM (viability)” value ([3]; 20 mM HMT, 72 hours, p>0.05) was “did not alter the toxicity of SM” and the “cellular function measured by neutral red uptake” value ([3]; treatment without SM, over the course of the experiment) was “nor alter cellular function”.
